Tests used:
[1] = biological target: Arabidopsis thaliana HPPD (AtHPPD) (Arabidopsis thaliana, UniProt P93836); test: AtHPPD enzyme inhibition study; assay type: biochemical; conditions: read-out: AtHPPD inhibition Ki
Protocol: AtHPPD was prepared and puriﬁed according to the reported methods in the literature [19–2035–37].

Chains of the proteins cited; added tags and fusions are not shown.
UniProt P93836, whole entry: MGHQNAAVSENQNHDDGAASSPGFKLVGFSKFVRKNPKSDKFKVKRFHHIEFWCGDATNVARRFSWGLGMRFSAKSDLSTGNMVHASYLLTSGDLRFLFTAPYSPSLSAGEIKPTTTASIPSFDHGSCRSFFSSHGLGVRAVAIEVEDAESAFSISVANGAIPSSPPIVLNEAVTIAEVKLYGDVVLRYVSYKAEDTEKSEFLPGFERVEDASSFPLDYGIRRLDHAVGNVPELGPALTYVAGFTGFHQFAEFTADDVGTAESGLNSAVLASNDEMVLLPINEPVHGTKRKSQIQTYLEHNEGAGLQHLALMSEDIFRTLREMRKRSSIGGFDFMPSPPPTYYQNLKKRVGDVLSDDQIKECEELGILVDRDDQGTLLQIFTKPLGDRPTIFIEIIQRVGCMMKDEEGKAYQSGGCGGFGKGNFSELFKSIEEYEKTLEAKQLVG

[2] = system: E. crus-galli, S. faberii, D. sanguinalis, A. retroflexus, E. prostrata, A. juncea; test: Post-emergence greenhouse herbicidal activity; assay type: in vivo; design: scale not given here; conditions: 150 g ai/ha, sum over six weeds (AJ, AR, EP, DS, EC, SF), 18 days after treatment

| Structure (SMILES) | Ki [1] [µM] | Sum of inhibition rate [2] |
| --- | --- | --- |
| Cn1nc(C2CC2)c(C(=O)COc2ccc3ccccc3c2Br)c1O | 2.2 | 20 |
| Cc1nn(C)c(O)c1C(=O)COc1ccc2ccccc2c1Br | 2.2 | 30 |
| CC1(C)CC(=O)C(C(=O)COc2ccc3ccccc3c2Br)=C(O)C1 | 2.5 | 160 |
